{
  "source": "paper PMC4148842",
  "about": "“The Recognition of Collagen and Triple-helical Toolkit Peptides by MMP-13” (The Journal of Biological Chemistry, 2014)",
  "key": {"[1]": {"molecular_target": "Monomeric collagen (type I) (UniProt P02453)", "experiment": "ELISA; SPBA, increasing concentrations of MMP-13 or MMP-13(E204A) on wells coated with fibrillar or monomeric type I collagen (10 μg/ml); KD from fitted curves (Fig. 3)"}, "[2]": {"molecular_target": "Fibrous bovine type I collagen (bovine) (UniProt P02453)", "experiment": "ELISA; SPBA, increasing concentrations of MMP-13 or MMP-13(E204A) on wells coated with fibrillar or monomeric type I collagen (10 μg/ml); KD from fitted curves (Fig. 3)"}},
  "data": [
    {"substance": "MMP-13 (from UniProt P45452 104-471) (enzyme)", "values": [
      {"measurement": "Kd", "setting": "[1]", "result": 0.118, "unit": "µM"},
      {"measurement": "Kd", "setting": "[2]", "result": 0.033, "unit": "µM"}
    ]}
  ]
}
